Molecules are shown by their SMILES.

For this assay, the system named is human lung cancer cells.

With `O=C(O)C(=O)CBr` [3-Bromopyruvate, 3-bromopyruvate], the “effectiveness vs the closest comparative known anti-cancer agent” value is reported as “more than twice as effective”.

(Values after patent publication US11077078B2, “Compositions and methods for the treatment of cancer” (KoDiscovery, LLC, priority 2006, dated 2021).)
